Test results reported in patent US20090192077A1, “North-2'deoxy -methanocarbathymidines as antiviral agents for treatment of kaposi's sarcoma-associated herpes virus” (priority 2005, published 2009).

Biological target: T1, recombinant KSHV DNA polymerase (rPOL) and polymerase processivity factor (rPPF) (Human herpesvirus 8 type P, UniProt Q2HRD0)
T1 sequence (Q2HRD0 1-1012): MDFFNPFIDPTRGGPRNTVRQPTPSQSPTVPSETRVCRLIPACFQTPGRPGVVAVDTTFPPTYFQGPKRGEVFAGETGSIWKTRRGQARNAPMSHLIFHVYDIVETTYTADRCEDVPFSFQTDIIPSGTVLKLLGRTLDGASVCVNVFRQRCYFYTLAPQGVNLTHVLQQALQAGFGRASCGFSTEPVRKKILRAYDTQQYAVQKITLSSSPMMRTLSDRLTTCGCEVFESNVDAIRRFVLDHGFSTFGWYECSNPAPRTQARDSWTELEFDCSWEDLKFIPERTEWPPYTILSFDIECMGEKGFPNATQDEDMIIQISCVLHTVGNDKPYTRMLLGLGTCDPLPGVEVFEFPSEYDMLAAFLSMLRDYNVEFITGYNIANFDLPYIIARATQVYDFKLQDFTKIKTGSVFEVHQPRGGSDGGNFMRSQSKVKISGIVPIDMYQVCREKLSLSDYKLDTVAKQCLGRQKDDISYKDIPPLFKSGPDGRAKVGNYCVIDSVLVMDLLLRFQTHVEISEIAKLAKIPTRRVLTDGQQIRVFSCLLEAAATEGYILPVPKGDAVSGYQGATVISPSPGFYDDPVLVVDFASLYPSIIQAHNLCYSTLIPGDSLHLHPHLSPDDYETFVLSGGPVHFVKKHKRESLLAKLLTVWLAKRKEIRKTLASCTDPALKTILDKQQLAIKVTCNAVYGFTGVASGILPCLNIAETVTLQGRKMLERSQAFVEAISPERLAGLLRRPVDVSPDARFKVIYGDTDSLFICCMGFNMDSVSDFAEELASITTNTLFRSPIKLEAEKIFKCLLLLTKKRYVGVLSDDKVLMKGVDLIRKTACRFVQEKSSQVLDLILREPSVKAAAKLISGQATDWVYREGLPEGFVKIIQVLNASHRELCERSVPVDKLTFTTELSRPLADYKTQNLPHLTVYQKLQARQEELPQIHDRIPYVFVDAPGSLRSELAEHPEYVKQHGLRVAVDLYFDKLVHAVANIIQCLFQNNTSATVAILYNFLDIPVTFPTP
T1 sequence (F5HID2 1-396 partner): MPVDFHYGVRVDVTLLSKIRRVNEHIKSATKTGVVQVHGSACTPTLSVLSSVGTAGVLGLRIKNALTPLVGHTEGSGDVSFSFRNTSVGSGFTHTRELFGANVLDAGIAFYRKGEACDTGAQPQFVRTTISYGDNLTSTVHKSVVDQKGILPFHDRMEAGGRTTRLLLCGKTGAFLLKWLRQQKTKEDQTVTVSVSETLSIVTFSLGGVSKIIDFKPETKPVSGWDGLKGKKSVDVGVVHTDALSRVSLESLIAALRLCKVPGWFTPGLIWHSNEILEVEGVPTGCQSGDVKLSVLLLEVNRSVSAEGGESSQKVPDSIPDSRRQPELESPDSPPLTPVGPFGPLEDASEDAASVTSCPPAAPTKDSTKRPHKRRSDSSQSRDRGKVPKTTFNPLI
Test: biochemical
Protocol: KSHV rPOL and rPPF were expressed and purified from the recombinant baculovirus-vector infected Sf9 cells (Dorjsuren, D. et al. 2003 Protein Expr Purif 29:42-50). […] The amounts of newly synthesized DNA, which incorporated DIG-dUTP, were determined by the DIG detection kit (Roche Applied Science) according to the manufacturer's instructions.

With `Cc1cn([C@H]2C[C@H](O)[C@]3(COP(=O)(O)OP(=O)(O)OP(=O)(O)O)C[C@H]23)c(=O)[nH]c1=O` [N-MCT-TP, North-methanocarbathymidine triphosphate] the IC50 was 6.24 ± 0.08 µM, the IC90 (read-out: IC90, KSHV rPOL/rPPF-mediated DNA synthesis) was 76.5 ± 14 µM and the “% inhibition of DNA synthesis reached” value (within the concentrations tested (up to 500 μM)) was “greater than 90%”.
